Literature values as cited in article PMC5372507.

Tests used:
[1] = biological target: CD146 (Homo sapiens) (UniProt P43121)
[2] = biological target: Unc5B (Homo sapiens) (UniProt Q8IZJ1)

In the case of Netrin-1 (from UniProt O95631), the Kd [1] is given as 1.3 nM and the Kd [2] is given as 5.1 nM.
